Experimental data from patent US6440970B1, “Pharmaceutical compositions and methods for use” (Targacept, Inc., priority 2000, dated 2002).

How the values were obtained:
[1] = target: CNS nicotinic receptors; test: Determination of binding to relevant receptor sites; conditions: inhibition constant calculated from IC50 by the method of Cheng et al.
Method: Determination of Binding to Relevant Receptor Sites
Binding of the compounds to relevant receptor sites was determined in accordance with the techniques described in U.S. Pat. No. 5,597,919 to Dull et al. Inhibition constants (Ki values), reported in nM, were calculated from the IC50 values using the method of Cheng et al., Biochem, Pharmacol. 22:3099 (1973).

[2] = tested on: Rat brain synaptosomes; test: Determination of dopamine release / neurotransmitter release from brain synaptosomes; format: cell-based; conditions: amount released relative to (S)-(-)-nicotine on a percentage basis
Method: Determination of Dopamine Release
Dopamine release was measured using the techniques described in U.S. Pat. No. 5,597,919 to Dull et al. Release is expressed as a percentage of release obtained with a concentration of (S)-(−)-nicotine resulting in maximal effects. Reported EC50 values are expressed in nM, and Emax values represent the amount released relative to (S)-(−)-nicotine on a percentage basis.
Neurotransmitter Release from Brain Synaptosomes
Neurotransmitter release was measured using techniques similar to those previously published (Bencherif M, et al. JPET 279: 1413-1421, 1996).
Rat brain synaptosomes were prepared as follows: Female Sprague Dawley rats (100-200 g) were killed by decapitation after anesthesia with 70% CO2. Brains are dissected, and hippocampus, striatum, and thalamus isolated, and homogenized in 0.32 M sucrose containing 5 mM HEPES pH 7.4 using a glass/glass homogenizer. The tissue was then centrifuged for 1000×g for 10 minutes and the pellet discarded. The supernatant was centrifuged at 12000×g for 20 minutes. […] The perfusate was collected directly into scintillation vials and released radioactivity was quantified using conventional liquid scintillation techniques. Release of neurotransmitter was determined in the presence of 10 uM of various ligands and was expressed as a percentage of release obtained with a concentration of 10 uM (S)-(−)-nicotine.

Row | Substance | Ki [1] | Emax value for dopamine release [2]
1 | (1S,4S)-(5-pyrimidinyl)-2,5-diazabicyclo[2.2.1]heptane hemigalactarate [Sample No. 3] | 6 nM | –
2 | (1S,4S)-(5-(4-methoxyphenoxy)-3-pyridyl)-2,5-diazabicyclo[2.2.1]heptane hemigalactarate [Sample No. 2] | 13 nM | 24%
3 | (1S,4S)-(6-chloro-3-pyridazinyl)-2,5-diazabicyclo[2.2.1]heptane hemigalactarate [Sample No. 4] | 43 nM | 128%
